In ChEMBL document CHEMBL1629485, “Lead identification of conformationally restricted β-lactam type combretastatin analogues: synthesis, antiproliferative activity and tubulin targeting effects” (Eur J Med Chem, 2010):

Species: Bos taurus
Experiment: Inhibition of bovine tubulin polymerization at 10 uM measured every 30 seconds for 60 mins by spectrophotometry relative to control

Row | fold change (FC) | Structure (SMILES)
1 | 6 | COc1ccc(/C=C\c2cc(OC)c(OC)c(OC)c2)cc1O [COMBRETASTATIN A4]
2 | 1.2 | COc1cc(OC)c(C2CC(=O)N2c2cc(OC)c(OC)c(OC)c2)cc1OC (stereo not drawn)

Row | Structure (SMILES) | fold change (FC)
3 | COc1ccc(C2CC(=O)N2c2cc(OC)c(OC)c(OC)c2)cc1O (stereo not drawn) | 10.2
